Reference: patent publication US9968570B2, “Compositions and methods for treating cancer” (Chemo-Enhanced LLC, priority 2013, dated 2018)

Columns and labels:
Format in all cases: cell-based, human
[1] = system: L3.6 pancreatic cancer cells; assay: MTT cell viability assay, C6-Ceramide / chemo agents / pathway inhibitors; conditions: L3.6 (FIG. 6A), basic DMEM; Gemcitabine 3 μg/ml, Taxol 15 ug/ml, C6-Ceramide 10 ug/ml, Cetuximab 10 ug/ml
[2] = system: Panc-1; assay: MTT cell viability assay, C6-Ceramide with chemo agents; conditions: Panc-1 (FIG. 6B), basic DMEM; Gemcitabine 3 μg/ml, Taxol 15 ug/ml, C6-Ceramide 10 ug/ml, Cetuximab 10 ug/ml
Description: (§1) FIG. 6 depicts data showing synergistic effects of C6-Ceramide to potentiate the cytotoxicity of Paclitaxel (Taxol), Gemcitabine, and Cetuximab in L3.6, Panc-1, and MIA PaCa2 pancreatic cancer cell lines. Pancreatic cancer cell lines including L3.6 cells, Panc-1, and MIA-PaCa2 (MIA), cultured in basic DMEM medium, were treated with Taxol (3 ug/ml), Gemcitabine (3 ug/ml), or Cetuximab (10 ug/ml). Mitomycin C (10 ug/ml) was always present in the media to prevent cell proliferation from occurring. The data represent the mean±SD of at least triplicate experiments. *P<0.05 versus group without C6 Ceramide present. The experiments in this figure were repeated at least three times and similar results were observed. […]
(§2) Cell viability was measured by the 3-(4,5-dimethylthiazol-2-yl)-2,5-diphenyltetrazolium bromide (MTT) method, as described previously (Cao, C., et al. Sci Signal, 2: ra17, 2009; and Vanhaesebroeck, B., et al. Annu Rev Biochem, 70: 535-602, 2001). […] The medium was subsequently aspirated from each well and 150 μl of DMSO (Sigma, St. Louis, Mo.) was added to dissolve formazan crystals and the absorbance of each well was obtained using a Dynatech MR5000 plate reader at a test wavelength of 490 nm with a reference wavelength of 630 nm.

[3] = system: MIA-PaCa2 (MIA) cells; assay: as above; conditions: MIA cells (FIG. 6C), basic DMEM; Gemcitabine 3 μg/ml, Taxol 15 ug/ml, C6-Ceramide 10 ug/ml, Cetuximab 10 ug/ml
Description: as §1, §2

Measured: cell death

Cetuximab: anti-EGFR monoclonal antibody
lack of effect: [1] | [2] | [3]
